Assays:
[1] = target: T1, hIAPP1-37 (Homo sapiens, UniProt P10997); assay: Thioflavin T fluorescence assay of hIAPP fibrillization (sodium acetate buffer); type: biochemical; details: 4 μM hIAPP1-37, 40 μM inhibitor, 10 mM sodium acetate pH 6.5
T1 construct: purchased CalBiochem (La Jolla Calif., USA)
T1 sequence (P10997 34-70 limits assumed): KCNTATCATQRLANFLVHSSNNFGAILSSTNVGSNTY
Method: Thioflavin T fluorescence assay—hIAPP fibrillization was monitored by Thioflavin T dye binding assay. hIAPP1-37 stock solution was diluted to a final concentration of 4 μM in 10 mM sodium acetate buffer (pH 6.5) with or without inhibitors (40 μM), and a final concentration of HFIP of 1% (vol). Immediately after dilution, sample was centrifuged for 20 minutes in 20,000×g at 4° C. and the supernatant fraction was used for fluorescence measurements. In every measurement ThT was added to a 1 ml sample at a final concentration of 3 μM and measurements were effected by using Perkin-Elmer (excitation 450 nm, 2.5 nm slit; emission 480 nm 10 nm slit). Background was subtracted from all samples.

[2] = target: T2, full-length IAPP polypeptide (Homo sapiens, UniProt P10997); assay: ThT fluorescence assay of IAPP fibril formation with inhibitory peptides (Tris buffer); type: biochemical; details: 4 μM IAPP, 40 μM inhibitory peptide, 142 hours of incubation
T2 construct: purchased CalBiochem (La Jolla Calif., USA)
T2 sequence (P10997 34-70 limits assumed): T1 sequence (P10997 34-70 limits assumed)
Method: The ability of amyloidogenic peptides of IAPP, identified according to the teachings of the present invention to inhibit amyloid formation by the full-length polypeptide was tested by the addition of beta-breaker proline residues to the recognition sequence as set forth in the peptide sequence NFLVHPP (SEQ ID NO: 45). The degree of amyloid fibrils formation with and without the inhibitor was assessed using Thioflavin T (ThT) as molecular indicator. The degree of fluorescence of the ThT dye is directly correlated with the amount of amyloid fibrils in the solution [LeVine H 3rd. (1993) Protein Sci. 2:404-410. […] Fibril formation was determined by a ten fold dilution of the solutions into a solution that contained 3[…] thioflavin T (ThT) in 50 mM sodium phosphate pH 6.0 and determination of fluorescence at 480 nm with excitation at 450 nm using a LS50B spectroflurimeter (Perkin Elmar, Wellesley, Mass.). As a control 10 mM Tris buffer pH 7.2 were diluted into the ThT solution and fluorescence was determined as described.
The degree of amyloid fibril formation with and without the Aib inhibitor was assessed using thioflavin T (ThT) as molecular indicator. The degree of fluorescence of the ThT dye is directly correlated with the amount of amyloid fibrils in the solution [LeVine H 3rd. […]
The inhibitory peptides were assayed using standard ThT fluorescence assay (as described). […]

Row | inhibition of IAPP fibrillization (ThT fluorescence at plateau) [1] | Substance | inhibition of IAPP aggregation (ThT endpoint) [2]
1 | effective inhibition | D-Pro-D-Tyr (PY; D-amino acids) [EG17] | 
2 | inhibition potential | D-Trp-D-Pro (WP; D-amino acids) [EG31] | 
3 | effective inhibition | D-Tyr-D-Pro (YP; D-amino acids) [EG18] | significant inhibitory effect on IAPP aggregation
